Test results taken from patent US20130116287A1 (priority 2010, published 2013).

Experiment: Measurement of logP values by HPLC on reversed phase columns (EEC directive 79/831 Annex V.A8)
Assay type: physicochemical
Details: for Log P: pH 2.7, 0.1% formic acid in water / acetonitrile, single value

| Compound | Log P | further results |
| --- | --- | --- |
| Cc1snnc1C(=NOCc1cccc(NC(=O)CSc2ccccc2)n1)c1ccccc1 (mixture of isomers) [Example 6] |  | Log P [I1] main isomer (pH 2.7, 0.1% formic acid, main isomer): 4.21 |
| Cc1snnc1C(=NOCc1cccc(NC(=O)COCc2ccccc2)n1)c1ccccc1 (mixture of isomers) [Example 29] |  | Log P [I2] minor isomer (pH 2.7, 0.1% formic acid, minor isomer): 4.21 |
| Cc1snnc1C(=NOCc1csc(NC(=O)COc2ccc(Cl)cc2)n1)c1ccccc1 (mixture of isomers) [Example 33] |  | Log P (two values printed, isomers not assigned) (pH 2.7, 0.1% formic acid, two values without isomer tag): 4.21 |
| Cc1snnc1C(=NOCc1cccc(NC(=O)COCCC(C)C)n1)c1ccccc1 [Example 4] | 4.78 |  |
| Cc1snnc1C(=NOCc1cccc(NC(=O)COc2ccc(I)cc2)n1)c1ccccc1 [Example 46] | 4.78 |  |
| Cc1snnc1C(=NOCc1cccc(NC(=O)CSCCC(C)C)n1)c1ccccc1 [Example 68] | 4.78 |  |
| Cc1snnc1C(=NOCc1csc(NC(=O)C(C)OCC(C)C)n1)c1ccccc1 (centres unmarked) [Example 85] | 4.39 |  |
| CCCCOC(C)C(=O)Nc1cccc(CON=C(c2ccccc2)c2nnsc2C)n1 (centres unmarked) [Example 97] | 4.78 |  |
